The test system of series [1] is Rattus norvegicus. In words: (§1) Biodistribution of compound in rat brain after 5 min of administration. It counts as ADME, organism-based. As to conditions: in vivo.
For series [2], the system named is Rattus norvegicus. The description is as §1. It counts as ADME, organism-based. As to conditions: in vivo. Summed up:
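Female Sprague-Dawley rats (150–200 g) received the complex in normal saline (~12.5 μCi/mL) through a lateral tail vein at ~25 μCi/kg. Rats were killed by cervical dislocation 5 min after injection. Tissues were washed with saline, blotted, weighed and γ-counted to give percent injected dose/g tissue.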
This is another data set of the same source.

BIS(TOLUENE)TECHNETIUM registered a Dose/g in the series with Rattus norvegicus [1] of 0.03%.

On to Bis(m-xylene)technetium, for which, in the series with Rattus norvegicus [2], the Dose/g stood at 0.01%.

In the series on Rattus norvegicus [2], Bis(toluene)technetium displayed a Dose/g of 0.01%.

(Values after ChEMBL document CHEMBL1125797, “Synthesis, characterization and myocardial uptake of cationic bis(arene)technetium(I) complexes” (J Med Chem, 1991).)
